# Experimental data: US20210275621A1, “COMPOSITION FOR PREVENTING, ALLEVIATING, IMPROVING, OR TREATING THE FEMALE HORMONE CONTROLLING DISORDER SYNDROME OR SYMPTOMS COMPRISING GREEN TEA EXTRACT WHICH HAS MODIFIED AMOUNTS OF INGREDIENTS” (AMOREPACIFIC CORPORATION, priority 2020, published 2021)
# Sequences of proteins named here, by UniProt entry; tags and fusion partners are left off.
# UniProt Q92731, whole entry: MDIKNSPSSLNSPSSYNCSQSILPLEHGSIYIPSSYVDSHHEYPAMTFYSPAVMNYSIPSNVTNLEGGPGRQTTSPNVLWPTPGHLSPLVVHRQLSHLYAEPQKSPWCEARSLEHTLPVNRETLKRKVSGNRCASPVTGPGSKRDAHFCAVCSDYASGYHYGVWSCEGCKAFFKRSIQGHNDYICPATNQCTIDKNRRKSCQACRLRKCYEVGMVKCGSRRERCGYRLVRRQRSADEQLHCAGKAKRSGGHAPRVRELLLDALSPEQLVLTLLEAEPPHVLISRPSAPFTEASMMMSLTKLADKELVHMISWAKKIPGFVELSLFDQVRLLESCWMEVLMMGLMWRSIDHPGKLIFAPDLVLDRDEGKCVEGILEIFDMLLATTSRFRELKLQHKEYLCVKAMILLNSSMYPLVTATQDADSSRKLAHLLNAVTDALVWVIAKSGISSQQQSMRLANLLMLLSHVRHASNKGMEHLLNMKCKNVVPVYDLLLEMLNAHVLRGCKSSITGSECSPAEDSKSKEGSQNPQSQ
# Biological target: T1, estrogen receptor ERβ (Homo sapiens, UniProt Q92731)
# T1 construct: host or cells: reporter cells included in the purchased panel
# Assay: Human ERα/β reporter assay panel (ERE-luc), ERβ
# Format: cell-based
# Details: 100 pM, control included in the assay panel; FIG. 6
# Experimental: For evaluation of the effect of activating estrogen receptors alpha and beta (ERα/β) of the notified green tea extract, the high-temperature-processed green tea extract and theanine depending on the weight ratio of GCG:EGCG, a human ERα/β reporter assay panel (IB00421-48P, Indigo Bioscience) was treated with 20 μg/mL sample 1 (notified green tea extract), 20 μg/mL sample 2 (high-temperature-processed green tea extract), 20 μg/mL sample 3, or 20 μg/mL sample 4 of Preparation Example 1 or 2, or 1 μg/mL theanine of Preparation Example 3, for 24 hours and then the increased activity of the estrogen receptors ERα and ERβ was analyzed.
# Specifically, ERα and ERβ are overexpressed and the ERE-luc reporter gene is included in the cells included in the human ERα/β reporter assay panel. If the activity of the estrogen receptors is increased upon treatment with the test substance, ERα and ERβ are bound to ERE and the expression of luciferase is induced. Therefore, the activity of ERα and ERβ can be determined by measuring light emission from the cells.
smiles,measurement,value
C[C@]12CC[C@@H]3c4ccc(O)cc4CC[C@H]3[C@@H]1CC[C@@H]2O [17b-estradiol],activity of estrogen receptor ERβ (luciferase activity),increased the activity
